scFv variants of Ab-14 (light chain) against a SARS-CoV-2 spike peptide

The measurements come from Li et al. 2023 (doi:10.1038/s41467-023-39022-2) through the FLAb antibody collection.

Target: peptide PDVDLGDISGINAS, taken from heptad repeat 2 (HR2) of SARS-CoV-2 spike.

Ab-14 is the parent antibody, in scFv form: VH, then a (GGGGS)3 linker, then VL. The heavy chain is unchanged in all variants.
VH: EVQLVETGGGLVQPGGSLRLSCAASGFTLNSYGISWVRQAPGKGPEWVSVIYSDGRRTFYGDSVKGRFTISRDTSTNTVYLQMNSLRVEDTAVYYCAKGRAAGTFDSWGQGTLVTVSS
VL: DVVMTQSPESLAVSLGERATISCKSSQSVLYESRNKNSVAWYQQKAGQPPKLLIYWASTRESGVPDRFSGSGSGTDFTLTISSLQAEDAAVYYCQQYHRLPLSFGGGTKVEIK

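The parent was found by panning a naive human phage display library on the peptide. This is the validation round: designs drawn from the data on random variants, tested in the same kind of assay. Several design methods are mixed in this list. AlphaSeq pools MATa yeast showing the antibodies with MATalpha yeast showing the peptide. Pairs that bind mate more often; barcode pairs of the diploids are counted by sequencing. A regression on co-assayed BCL2-family reference pairs converts the normalised counts of each replicate to an apparent Kd. Each pool was mated in six replicate cultures.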

Variants are written as CDR1, CDR2 and CDR3 of the light chain (limits as in the source). Parent: KSSQSVLYESRNKNSVA, WASTRES, QQYHRLPLS.
Variants here have more than six changes.
Values are apparent Kd, the geometric mean of the replicates that gave a signal; lower means stronger binding.
A pair that was not seen in any replicate is written "no signal"; this usually means weak binding, but a binder can also be missed.
The list is sorted by this average, lowest first, undetected variants last.
The authors averaged sequences with at least three values out of six and counted those with two or fewer as poor binders.

With NSSGMGMFEERNKNSVA / HASTREE / QQYERLPLS the result was 390 pM (6 of 6 replicates; controls 0 of 18). The variant KFEQSWLYESRNVNSVA / NASTRSQ / QQYHRLPLS gave 430 pM (6 of 6 replicates; controls 1 of 18). For KLQGSVLYESRNKNAVA / GASQREK / QQYHRLPLS, the assay gave 880 pM (6 of 6 replicates; controls 1 of 18). With HQSGSVLYESRNSNSVA / NGSTREV / QQYHRLPLS the result was 980 pM (6 of 6 replicates; controls 0 of 18). For KISMLQRFQQNAKNNIA / EMNRREE / QQYHRLPLS, the assay gave 1.1 nM (6 of 6 replicates; controls 0 of 18). With TIPDLMGHVSKHTNNVA / DMDTRGD / QQYNRLPLS the result was 1.1 nM (6 of 6 replicates; controls 0 of 18).

With TIGPMLMTESKNKNNVA / GMQTRER / QQYHRLPLS the result was 1.3 nM (6 of 6 replicates; controls 0 of 18). The variant KFSQSVPYEERNLNNVA / NGSTRCS / QQYHRLPLS gave 1.3 nM (6 of 6 replicates; controls 4 of 18). The variant TLSSSMDMTSRNVNSVA / DLTTRGN / QQYHRLPLS showed 1.4 nM (6 of 6 replicates; controls 0 of 18). The variant SVQYFPEESLRHASAIA / DVNIKVM / QQYSRLPLA showed 1.6 nM (6 of 6 replicates; controls 0 of 18). For KMSQSEDYEDRNCNAVA / NASQREE / QQYHRLPLS, the assay gave 1.7 nM (6 of 6 replicates; controls 0 of 18). For QLQYAPGESLRSTQSIA / DVNIKDM / QQYARLPLA, the assay gave 2.1 nM (6 of 6 replicates; controls 0 of 18).

With MFSQTVMYESTMRNNVA / QTSTREE / QQYDHLPLS the result was 2.2 nM (6 of 6 replicates; controls 1 of 18). The variant NISYEQALSTYSVNNVA / QASVRAP / QYYQRLPLV gave 2.4 nM (6 of 6 replicates; controls 0 of 18). The variant KLRTVTGTEKVKGNNVA / EMETRER / QQYNRLPLS gave 2.4 nM (6 of 6 replicates; controls 4 of 18). With KLKYQADHYGMNWNNVA / QADIRAP / QQYNKLPLN the result was 2.6 nM (6 of 6 replicates; controls 2 of 18). For KFSQSDLYEDGAKNSVA / NASTRCS / QQYHRLPLS, the assay gave 2.7 nM (6 of 6 replicates; controls 0 of 18). For KVSWSWLLESRVWNSVA / NASLRES / QQYHRLPLS, the assay gave 3.3 nM (6 of 6 replicates; controls 2 of 18).

The variant NLSIEMSYYYENRYNIA / DMTVREY / QHYSRIPLA showed 4.5 nM (6 of 6 replicates; controls 1 of 18). For TISQVMNTLTRHGNNVA / DLAEREH / QQYFRLPLS, the assay gave 4.6 nM (6 of 6 replicates; controls 0 of 18). The variant KIGMTLNTLMHQKNNVA / DLVMREM / QQYHRLPLS showed 5.3 nM (6 of 6 replicates; controls 2 of 18). The variant TLYGLSMSMSKNKNNVA / EMSTREP / QQYDRLPLI showed 5.6 nM (6 of 6 replicates; controls 0 of 18). With SFPESLNQQQTNVNAVA / GAQHTAR / QQYGRLPLT the result was 5.6 nM (5 of 6 replicates; controls 0 of 18). With KLTSITGTEKVKGNNVA / EMETREE / QQYNRLPLS the result was 5.9 nM (6 of 6 replicates; controls 0 of 18).

The variant KVSQSGLYGMRNKMSVA / QASQRLS / QQYHRLPLS gave 6.9 nM (6 of 6 replicates; controls 2 of 18). The variant KLSQVTHSEHKIKNSIA / EMVTREK / QQYDRLPLS gave 7.5 nM (6 of 6 replicates; controls 1 of 18). The variant KLSPSQLYWSRNFNAVA / QASTRET / QQYHRLPLS gave 7.6 nM (6 of 6 replicates; controls 0 of 18). With KLSQVTHSESRLKNSIA / EMVTREV / QQYDRLPLS the result was 9.7 nM (6 of 6 replicates; controls 1 of 18). The variant KLSTETYGLTGHTSSIA / HEEIRWA / QQYHKLPLI showed 11 nM (6 of 6 replicates; controls 1 of 18). With TISMHTSLFSQTINNVA / EVSTREN / QQYDRLPLM the result was 12 nM (6 of 6 replicates; controls 0 of 18).

The variant KLGQMTAIESRNNNSVA / QMDTREE / QQYDRLPLS showed 13 nM (6 of 6 replicates; controls 1 of 18). With HVSNLLTDEMYREYNVA / ETSHVEE / QQYERLPLI the result was 14 nM (6 of 6 replicates; controls 0 of 18). The variant KISQMYRYEQQNHSSIA / EANTREE / QSYHRLPLS showed 16 nM (6 of 6 replicates; controls 0 of 18). With KVTMYELEMRFNGSAVA / AAEVRAN / QQYWRLPLE the result was 17 nM (6 of 6 replicates; controls 1 of 18). The variant TLSQVQGMEMHNRDNVA / DLSTRGN / QQYDRLPLS showed 20 nM (4 of 6 replicates; controls 0 of 18). The variant KLLQTVKNGSYNRNNVA / HMTMRED / QQYFRLPLS showed 22 nM (3 of 6 replicates; controls 0 of 18).

The variant SLAGTLHFNQSGGSNVA / EVQMREQ / QQYFRLPLG gave 47 nM (6 of 6 replicates; controls 0 of 18). For TISQSTYIESFNKNNVA / QTSTREE / QDYDRLPLS, the assay gave 55 nM (6 of 6 replicates; controls 1 of 18). The variant MLSDLVKMGVRNTSSVA / DNSTRGS / QQYDRLPLS showed 56 nM (6 of 6 replicates; controls 2 of 18). The variant ALGDVTRMESNKKNSIA / DMSNRES / QQYDRLPLS gave 62 nM (6 of 6 replicates; controls 1 of 18). For KLSLMLNDMDARMWNVA / EGNQTKA / QDYHRLPLH, the assay gave 76 nM (5 of 6 replicates; controls 0 of 18). The variant KSEDGVDDEERNDNSVA / WASTRES / QQYHRLPLS showed 81 nM (3 of 6 replicates; controls 1 of 18).

The variant KIELSNSVSLRGTRAIA / QGSARAH / QQYHRLPLT showed 180 nM (6 of 6 replicates; controls 0 of 18). The variant HLLQTVMYGSYRKNSVA / HAQTREN / QQYHRLPLS gave 1.4 µM (3 of 6 replicates; controls 1 of 18). With FLAYALDQDGLIKNNIA / QDNLLEN / QQYERLPLG the result was no signal (0 of 6 replicates; controls 0 of 18).

Three control strains display no target. For all light chain designs, 4% of the pairings with them gave a signal, with a median of 430 nM and one signal in twenty below 38 nM, so weak values seen in few replicates may be background. For each scFv, signals with the empty controls are counted beside the result.
A sequence measured in both rounds can read differently, since the two assays cover different ranges.